Assays:
CAIII = CAIII (Homo sapiens, UniProt P07451); assay: fluorescent thermal shift assay (FTSA); assay type: binding; conditions: FTSA at 37 °C and pH 7.0, read-out: Kd_app
CAVII = CAVII (Homo sapiens, UniProt P43166); assay: fluorescent thermal shift assay (FTSA); assay type: binding; conditions: FTSA at 37 °C and pH 7.0, read-out: Kd_app
CA IV = CA IV (Homo sapiens, UniProt P22748); conditions: pH 7
CA VB = CA VB (Homo sapiens, UniProt Q9Y2D0); assay: fluorescent thermal shift assay (FTSA); assay type: binding; conditions: FTSA at 37 °C and pH 7.0, read-out: Kd_app
CA VA = CA VA (Homo sapiens, UniProt P35218); conditions: pH 7
CAII = CAII (Homo sapiens, UniProt P00918); conditions: pH 7

The chains behind the UniProt entries cited, without tags or fusion partners. Where a name states a change or a piece, a line headed by the entry shows the natural chain unless it says otherwise. Residues count along the entry.
UniProt P07451: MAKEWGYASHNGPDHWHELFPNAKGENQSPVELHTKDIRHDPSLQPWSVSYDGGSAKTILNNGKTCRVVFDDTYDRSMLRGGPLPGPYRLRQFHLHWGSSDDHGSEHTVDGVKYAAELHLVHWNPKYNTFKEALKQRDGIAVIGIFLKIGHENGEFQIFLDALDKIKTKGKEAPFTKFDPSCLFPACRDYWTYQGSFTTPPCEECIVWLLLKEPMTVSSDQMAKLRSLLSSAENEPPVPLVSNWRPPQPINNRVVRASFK
UniProt P43166: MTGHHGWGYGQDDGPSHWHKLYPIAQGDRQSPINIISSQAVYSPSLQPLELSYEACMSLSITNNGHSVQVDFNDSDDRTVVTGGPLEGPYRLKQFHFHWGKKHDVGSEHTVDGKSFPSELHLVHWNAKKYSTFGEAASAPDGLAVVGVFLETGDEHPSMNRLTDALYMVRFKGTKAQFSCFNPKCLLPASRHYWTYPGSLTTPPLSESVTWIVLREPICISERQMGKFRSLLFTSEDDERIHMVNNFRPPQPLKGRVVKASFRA
UniProt P22748, 19-284: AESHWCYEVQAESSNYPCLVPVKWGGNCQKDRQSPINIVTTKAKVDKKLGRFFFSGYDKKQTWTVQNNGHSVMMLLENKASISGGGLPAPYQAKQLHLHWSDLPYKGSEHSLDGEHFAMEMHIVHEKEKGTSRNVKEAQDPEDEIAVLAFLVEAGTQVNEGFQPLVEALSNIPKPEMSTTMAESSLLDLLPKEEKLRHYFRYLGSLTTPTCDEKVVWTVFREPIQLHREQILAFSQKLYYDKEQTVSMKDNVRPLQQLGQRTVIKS
UniProt Q9Y2D0, 34-317: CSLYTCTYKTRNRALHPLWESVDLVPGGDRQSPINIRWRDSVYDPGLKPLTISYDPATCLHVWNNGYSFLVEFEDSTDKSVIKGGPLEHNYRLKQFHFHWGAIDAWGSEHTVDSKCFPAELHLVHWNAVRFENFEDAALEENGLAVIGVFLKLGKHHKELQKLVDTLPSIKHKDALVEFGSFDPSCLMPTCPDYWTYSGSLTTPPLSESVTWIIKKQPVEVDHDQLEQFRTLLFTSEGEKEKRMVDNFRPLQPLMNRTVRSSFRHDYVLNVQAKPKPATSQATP
UniProt P35218, 39-305: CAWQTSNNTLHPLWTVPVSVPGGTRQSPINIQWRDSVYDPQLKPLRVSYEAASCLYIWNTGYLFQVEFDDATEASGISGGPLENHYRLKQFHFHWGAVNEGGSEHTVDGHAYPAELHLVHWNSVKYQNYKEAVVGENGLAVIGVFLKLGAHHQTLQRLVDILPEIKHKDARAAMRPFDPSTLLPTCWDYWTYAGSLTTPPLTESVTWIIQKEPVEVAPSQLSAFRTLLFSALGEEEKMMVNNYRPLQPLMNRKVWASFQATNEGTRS

Compound | Kd (CAIII) | Kd (CAVII) | Kd (CA IV) | Kd (CA VB) | Kd (CA VA) | Kd (CAII)
CCC(=O)OCCS(=O)(=O)c1c(F)c(F)c(S(N)(=O)=O)c(F)c1F [AV21-03-2, 2-((2,3,5,6-tetrafluoro-4-sulfamoylphenyl)sulfonyl)ethyl propionate] | 40000 nM | 0.002 nM | 2 nM |  |  | 
NS(=O)(=O)c1c(F)c(F)c(S(=O)(=O)CCOC(=O)Nc2ccccc2)c(F)c1F [AV22-138-1, 2-((2,3,5,6-tetrafluoro-4-sulfamoylphenyl)sulfonyl)ethyl phenylcarbamate] |  |  |  | 0.005 nM |  | 
CCC(=O)OCCS(=O)(=O)c1c(F)c(F)c(S(N)(=O)=O)c(F)c1NC1CCCCCCC1 [AV21-08, 2-((2-(cyclooctylamino)-3,5,6-trifluoro-4-sulfamoylphenyl)sulfonyl)ethyl propionate] |  |  |  |  | 1000 nM | 
CC(=O)OCCSc1c(F)c(F)c(S(N)(=O)=O)c(F)c1F [AV19-36, 2-((2,3,5,6-tetrafluoro-4-sulfamoylphenyl)thio)ethyl acetate] | 50000 nM | 5 nM |  |  |  | 
C=CS(=O)(=O)c1c(F)c(F)c(S(N)(=O)=O)c(F)c1F [AV22-48, 2,3,5,6-tetrafluoro-4-(vinylsulfonyl)benzenesulfonamide] |  |  |  | 0.01 nM | 1 nM | 
CCC(=O)OCCS(=O)(=O)c1c(F)c(F)c(S(N)(=O)=O)c(F)c1NC1CCCCCCCCCCC1 [AV22-132, 2-((2-(cyclododecylamino)-3,5,6-trifluoro-4-sulfamoylphenyl)sulfonyl)ethyl propionate] |  |  | 4 nM | 0.2 nM |  | 2 nM
COc1ccc(NC(=O)OCCS(=O)(=O)c2c(F)c(F)c(S(N)(=O)=O)c(F)c2F)cc1 [AV23-04, 2-((2,3,5,6-tetrafluoro-4-sulfamoylphenyl)sulfonyl)ethyl (4-methoxyphenyl)carbamate] |  | 0.4 nM | 20 nM |  |  | 0.3 nM
CC(=O)OCCS(=O)(=O)c1c(F)c(F)c(S(N)(=O)=O)c(F)c1NC1CCCCCCCCCCC1 [AV21-47, 2-((2-(cyclododecylamino)-3,5,6-trifluoro-4-sulfamoylphenyl)sulfonyl)ethyl acetate] |  |  | 0.2 nM |  | 5000 nM | 1 nM
